Our source for the IC50 values is US6750228B1, “Aromatic sulfone hydroxamic acid metalloprotease inhibitor” (priority 1997, dated 2004).

Holding throughout (assay): biochemical
One test deals with T1, MMP-13 (Homo sapiens, UniProt P45452).
T1 construct: made in house; host or cells: baculovirus / insect cells
The following applies: recombinant human MMP-13, MCA peptide substrate 4 μM, pH 7.5, room temperature.

Another test deals with T2, MMP-1 (Homo sapiens, UniProt P03956).
T2 construct: made in house; host or cells: transfected HT-1080 cells (provided by Dr. Harold Welgus, Washington University)
T2 sequence (P03956 100-469): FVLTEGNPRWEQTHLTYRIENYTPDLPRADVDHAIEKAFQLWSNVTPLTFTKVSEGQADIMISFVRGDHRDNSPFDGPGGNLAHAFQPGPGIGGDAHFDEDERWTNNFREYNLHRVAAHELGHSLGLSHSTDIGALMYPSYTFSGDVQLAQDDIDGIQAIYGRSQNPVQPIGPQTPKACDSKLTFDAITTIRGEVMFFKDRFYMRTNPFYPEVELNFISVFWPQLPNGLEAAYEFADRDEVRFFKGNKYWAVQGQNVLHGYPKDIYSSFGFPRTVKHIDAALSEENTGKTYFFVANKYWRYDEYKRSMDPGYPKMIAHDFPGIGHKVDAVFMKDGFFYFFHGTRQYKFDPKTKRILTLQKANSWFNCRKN

A further test concerns the target T3, MMP-2 (Homo sapiens, UniProt P08253).
T3 construct: made in house; provided by Dr. Gregory Goldberg, Washington University
T3 sequence (P08253 110-660): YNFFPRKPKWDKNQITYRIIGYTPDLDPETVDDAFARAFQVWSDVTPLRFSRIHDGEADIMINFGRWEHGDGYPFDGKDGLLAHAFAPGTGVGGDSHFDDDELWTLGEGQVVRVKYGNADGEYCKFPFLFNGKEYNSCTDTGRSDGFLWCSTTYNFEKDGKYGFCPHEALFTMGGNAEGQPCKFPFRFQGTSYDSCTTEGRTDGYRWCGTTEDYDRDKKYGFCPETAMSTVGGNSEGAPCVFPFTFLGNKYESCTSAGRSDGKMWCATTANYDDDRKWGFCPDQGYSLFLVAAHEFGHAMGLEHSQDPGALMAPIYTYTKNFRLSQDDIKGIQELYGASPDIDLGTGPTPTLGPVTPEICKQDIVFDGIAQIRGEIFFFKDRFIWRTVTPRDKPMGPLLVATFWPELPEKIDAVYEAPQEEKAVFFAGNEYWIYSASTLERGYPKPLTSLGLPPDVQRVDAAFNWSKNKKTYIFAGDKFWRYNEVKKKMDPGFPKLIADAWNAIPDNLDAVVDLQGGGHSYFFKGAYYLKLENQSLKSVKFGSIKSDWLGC
The settings on record: MMP-2 IC50 (nM), recombinant human MMP-2, MCA peptide substrate 4 μM, pH 7.5, room temperature.

Where two headings read alike, the source gives them in different places.

What is called IC50 is the midpoint of a concentration-inhibition curve. Consider `O=C(NO)C1(S(=O)(=O)c2ccc(Oc3ccc(C(F)(F)F)cc3)cc2)CCN(C2CC2)CC1` [Example 269], for which the IC50 on MMP-13 (MMP-13 IC50 (nM)) stood at 0.2 nM.

Take `O=C(NO)C1(S(=O)(=O)c2ccc(Oc3ccc(C(F)(F)F)cc3)cc2)CCN(C2CC2)CC1` [Example 270]: the half-maximal inhibitory concentration (IC50) was 1 nM on MMP-13 (read-out: MMP-13 IC50) and above 10000 nM at MMP-1.

For the molecule `O=C(NO)C1(S(=O)(=O)c2ccc(Oc3ccc(C(F)(F)F)cc3)cc2)CCN(C2CC2)CC1` [Example 271], the half-maximal inhibitory concentration (IC50) at MMP-13 (read-out: MMP-13 IC50) is 0.3 nM; at MMP-1 (read-out: MMP-1 IC50, pH 7.5), above 10000 nM.

As to `CC(=O)N1CCC(C(=O)NO)(S(=O)(=O)c2ccc(Oc3ccc(OC(F)(F)F)cc3)cc2)CC1` [Example 272, 1-Acetyl-N-hydroxy-4-[[4-[4-(trifluoromethoxy)phenoxy]-phenyl]sulfonyl]-4-piperidinecarboxamide], the 50% inhibitory concentration (IC50) at MMP-13 (MMP-13 IC50 (nM)) was 0.2 nM; against MMP-1 it was 3600 nM; on MMP-2, 0.1 nM.
